Literature values as cited in patent publication US20040132819A1, “Appetite control method” (priority 2002, published 2004).

By UniProt entry, the sequences of proteins in these tests, tags left out.
UniProt P47746, whole entry: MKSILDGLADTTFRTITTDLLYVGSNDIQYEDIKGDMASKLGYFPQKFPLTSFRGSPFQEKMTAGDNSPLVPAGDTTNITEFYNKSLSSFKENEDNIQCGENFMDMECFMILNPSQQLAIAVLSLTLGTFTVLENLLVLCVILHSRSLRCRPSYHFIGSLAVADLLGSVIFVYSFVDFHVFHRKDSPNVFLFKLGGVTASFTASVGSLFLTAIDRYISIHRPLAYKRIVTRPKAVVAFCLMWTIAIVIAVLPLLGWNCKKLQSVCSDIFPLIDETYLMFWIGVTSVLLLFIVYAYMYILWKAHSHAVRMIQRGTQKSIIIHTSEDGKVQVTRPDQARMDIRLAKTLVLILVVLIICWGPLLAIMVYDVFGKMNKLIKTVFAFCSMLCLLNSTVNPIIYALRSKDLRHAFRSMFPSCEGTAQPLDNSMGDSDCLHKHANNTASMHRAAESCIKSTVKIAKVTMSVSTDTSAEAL

Molecular target: CB1 receptor (Mus musculus, UniProt P47746)
Conditions: co-administered with SR141716A, through day 8; cited from earlier work

Question: Which “weight gain on co-administration with the antagonist” value does the source give for `CCCCCc1cc(O)c2c(c1)OC(C)(C)[C@@H]1CCC(C)=C[C@@H]21` [Δ^9-THC, Δ^9-tetrahydrocannabinol] here?
Answer: slight increases in weight gain
